Values quoted from earlier work in patent US5321030A, “Creatine analogs having antiviral activity” (priority 1991, dated 1994).

Amino acid sequences for entries named in this document (tags omitted). A change or cut given only in a name is not applied to a line headed by its entry.
UniProt P00563: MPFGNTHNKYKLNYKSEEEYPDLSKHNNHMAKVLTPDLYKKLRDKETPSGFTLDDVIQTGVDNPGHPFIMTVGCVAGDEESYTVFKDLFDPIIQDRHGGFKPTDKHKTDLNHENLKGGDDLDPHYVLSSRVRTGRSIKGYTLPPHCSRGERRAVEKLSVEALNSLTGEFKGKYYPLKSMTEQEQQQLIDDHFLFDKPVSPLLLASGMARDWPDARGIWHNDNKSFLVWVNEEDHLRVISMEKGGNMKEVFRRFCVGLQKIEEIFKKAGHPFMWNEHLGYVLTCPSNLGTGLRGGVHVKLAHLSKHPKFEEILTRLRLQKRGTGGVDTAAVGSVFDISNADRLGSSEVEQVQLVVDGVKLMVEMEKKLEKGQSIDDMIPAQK

Target: creatine kinase (Oryctolagus cuniculus, UniProt P00563)
Details: pH 7 (37° C.), reverse reaction; cited from earlier work

N=C1N(CC(=O)O)CCN1P(=O)(O)O
Vmax/Km ratio, fold lower than for P-creatine: approximately 160 fold
